From ChEMBL document CHEMBL2346654, “Discovery of biological evaluation of pyrazole/imidazole amides as mGlu5 receptor negative allosteric modulators” (Bioorg Med Chem Lett, 2013)

Amino acid sequences for entries named in this document (tags omitted).
UniProt P41594, whole entry: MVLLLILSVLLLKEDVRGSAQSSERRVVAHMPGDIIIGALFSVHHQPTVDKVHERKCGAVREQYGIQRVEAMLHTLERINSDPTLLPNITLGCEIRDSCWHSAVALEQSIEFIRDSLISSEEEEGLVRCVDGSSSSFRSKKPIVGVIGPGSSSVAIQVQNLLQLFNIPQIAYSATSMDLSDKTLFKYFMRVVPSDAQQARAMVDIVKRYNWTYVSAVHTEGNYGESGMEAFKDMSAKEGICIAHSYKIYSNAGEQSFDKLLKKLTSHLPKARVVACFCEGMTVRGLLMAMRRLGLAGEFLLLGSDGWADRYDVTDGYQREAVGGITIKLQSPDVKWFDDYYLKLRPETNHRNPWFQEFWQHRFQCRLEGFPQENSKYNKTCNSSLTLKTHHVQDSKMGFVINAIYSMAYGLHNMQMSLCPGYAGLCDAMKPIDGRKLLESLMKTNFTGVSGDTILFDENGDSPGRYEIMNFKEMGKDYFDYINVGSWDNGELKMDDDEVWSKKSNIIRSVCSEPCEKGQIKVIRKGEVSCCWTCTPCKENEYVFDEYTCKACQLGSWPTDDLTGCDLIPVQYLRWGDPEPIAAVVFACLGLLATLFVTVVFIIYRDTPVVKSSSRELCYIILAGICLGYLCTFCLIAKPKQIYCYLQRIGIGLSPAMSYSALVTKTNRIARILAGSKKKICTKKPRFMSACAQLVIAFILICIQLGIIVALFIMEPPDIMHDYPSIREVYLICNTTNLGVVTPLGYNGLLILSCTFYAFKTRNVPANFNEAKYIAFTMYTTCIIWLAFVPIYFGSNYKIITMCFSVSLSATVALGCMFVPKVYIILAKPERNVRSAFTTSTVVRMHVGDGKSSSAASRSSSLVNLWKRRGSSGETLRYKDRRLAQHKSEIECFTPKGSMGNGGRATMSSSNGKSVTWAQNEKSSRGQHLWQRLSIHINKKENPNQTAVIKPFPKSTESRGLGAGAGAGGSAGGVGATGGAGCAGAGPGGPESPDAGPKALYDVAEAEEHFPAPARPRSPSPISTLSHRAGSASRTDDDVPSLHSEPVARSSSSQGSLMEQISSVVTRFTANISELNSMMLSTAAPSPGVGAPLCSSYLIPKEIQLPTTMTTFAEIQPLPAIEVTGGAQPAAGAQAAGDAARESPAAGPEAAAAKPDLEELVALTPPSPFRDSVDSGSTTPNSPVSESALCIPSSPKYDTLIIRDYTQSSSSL

Target: Metabotropic glutamate receptor 5 (Homo sapiens, UniProt P41594)
Experiment: Negative allosteric modulation of human mGluR5 expressed in HEK293 cells assessed as calcium mobilization by FLIPR assay
Type: functional, cell-based

- IC50: 12 nM
Structure (SMILES): Cc1nc(C#Cc2cccnc2)cs1
